Measured values as given in article PMC6151491, “In Vitro Evaluation of Third Generation PAMAM Dendrimer Conjugates” (Molecules : A Journal of Synthetic Chemistry and Natural …, 2017).

Tests used:
[1] = Apparent partition coefficient between 1-octanol and buffer; assay type: physicochemical
[2] = system: Caco-2 cell monolayers; test: Transport across Caco-2 monolayers; conditions: each equivalent to 100 µM naproxen, A→B and B→A, 180 min
[3] = 1-octanol/0.06 M hydrochloric acid buffer pH 1.2, 37 °C
[4] = 1-octanol/phosphate buffer pH 7.4, 37 °C

| Substance | log Kapp(o/w) [1, 3] | log Kapp(o/w) [1, 4] | transport of naproxen across Caco-2 monolayers (in words) [2] |
| --- | --- | --- | --- |
| G0-diethylene glycol-naproxen [G0-deg-NAP] | −1.17 ± 0.1 | −1.07 ± 0.09 | No significant difference (p > 0.05) |
| lauroyl-G0-diethylene glycol-naproxen [L-G0-deg-NAP] | −0.18 ± 0.05 | −0.19 ± 0.07 | further enhancement (p < 0.05) in the transport of naproxen |
